Measurements published in patent US20220169680A1 (priority 2018, published 2022).

Test system: A549 cells
Assay: Entry of FITC-labeled polypeptides detected by flow cytometry
Assay type: cell-based
Settings: single site mutants, 1 μM, 3 h, FIG. 37

| Sequence | cell-penetrating peptide function compared with the parent polypeptide | cell-penetrating peptide function compared with positive control TAT |
| --- | --- | --- |
| RLFFKCIYSRLKYGLKRG | stronger than that of the parent Jilin-2004(H5N1)-M2-45-62 polypeptide |  |
| RLFFKCAYRRLKYGLKRG | stronger than that of the parent Jilin-2004(H5N1)-M2-45-62 polypeptide |  |
| RAFFKCIYRRLKYGLKRG | stronger than that of the parent Jilin-2004(H5N1)-M2-45-62 polypeptide |  |
| RLFFKCIYRRLKYGAKRG | stronger than that of the parent Jilin-2004(H5N1)-M2-45-62 polypeptide |  |
| RLFFKCIYRRLKYGLKRG |  | stronger than that of the positive control TAT |
| RLFFKCIKRRLKYGLKRG | stronger than that of the parent Jilin-2004(H5N1)-M2-45-62 polypeptide |  |
